A short description of test [1]: Selectivity ratio of IC50 for recombinant human AChE to IC50 for recombinant Aedes aegypti AChE1. In outline: (§1)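 Ratio = IC50 for hAChE divided by the higher of the IC50 values for AaAChE1 and AgAChE1. All IC50 values came from the Ellman assay with secreted recombinant enzymes.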
Test [2] is described as follows: Selectivity ratio of IC50 for recombinant human AChE to IC50 for recombinant Anopheles gambiae AChE1. In outline: as §1

On to `CCN1CCN(C2CCN(C(=O)COc3ccc(-c4ccccc4)cc3)CC2)CC1`, for which the Ratio IC50 in test [1] and in test [2] was 141 throughout.

The values are drawn from ChEMBL document CHEMBL4265992, “Noncovalent Inhibitors of Mosquito Acetylcholinesterase 1 with Resistance-Breaking Potency” (J Med Chem, 2018).
